What all share (assay): cell-based
Parameters in all cases: species or system Xenopus oocytes; patch-clamp proton currents, Hill fit of current inhibition, +120 mV, pHi = pHo = 6.0

In assay [1] the target is T1, D112E I127C+βME (Homo sapiens, UniProt Q96D96, D112E/I127C).
T1 construct: gene HVCN1; Hv1 homodimer, cysteines reduced by 10 mM βME
T1 sequence (Q96D96 1-273 D112E/I127C): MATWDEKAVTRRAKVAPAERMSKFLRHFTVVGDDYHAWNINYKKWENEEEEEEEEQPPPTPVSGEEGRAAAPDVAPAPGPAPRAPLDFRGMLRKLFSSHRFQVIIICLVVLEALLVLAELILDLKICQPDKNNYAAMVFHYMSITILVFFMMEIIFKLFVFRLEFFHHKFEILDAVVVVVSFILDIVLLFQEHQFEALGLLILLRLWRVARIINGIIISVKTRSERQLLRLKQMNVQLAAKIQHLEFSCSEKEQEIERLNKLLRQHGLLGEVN
Conditions: 10 mM βME; apparent Kd, Hill fit of current inhibition; read-out: Kd (µM) (±SE). An excerpt: (§1) Figure 1 Hv1 inhibition by guanidinothiazole derivatives. (a) Tested compounds: [1] reference Hv1 inhibitor 2-guanidino-benzimidazole (2GBI). 2-guanidino-benzothiazole (GBTA), [3] (5-trifluoromethyl-1,3-benzothiazol-2-yl)guanidine, [4] naphtho[1,2-d][1,3]thiazol-2-yl-guanidine, [5] (4-methyl-1,3-thiazol-2-yl)guanidine, [6] (5-bromo-4-methyl-1,3-thiazol-2-yl)guanidine, [7] famotidine, [8] ethyl 2-guanidino-5-methyl-1,3-thiazole-4-carboxylate, [9] ethyl 2-guanidino-4-methyl-1,3-thiazole-5-carboxylate, [10] ethyl (2-guanidino-4-methyl-1,3-thiazol-5-yl)acetate, [11] 1-[4-(4-chlorophenyl)-1,3-thiazol-2-yl]guanidine, [12] 1-[4-(3,4-dimethoxyphenyl)-1,3-thiazol-2-yl]guanidine. (b) Inhibition of human Hv1 activity by the indicated guanidinothiazoles and reference compound 2GBI (teal column). Hv1 proton currents were measured in inside out patches from Xenopus oocytes in response to depolarizations to +120 mV from a holding potential of −80 mV. Each inhibitor was added to the bath solution at a concentration of 200 μM. pHi = pHo = 6.0. Data are means ± S.E.M. (n ≥ 4). (c) Concentration dependences of inhibition of human Hv1 by compounds [2], [3], [6], and [11]. Each point represents the average inhibition from 3 to 15 measurements ± S.D. Curve lines are Hill fits used to obtain the apparent Kd values reported in Supplementary Table 1. Hill coefficients were determined from fits reported in Supplementary Fig. 1: h(1) = 0.975 ± 0.024 h(2) = 1.306 ± 0.033, h(3) = 1.25 ± 0.07, h(6) = 1.109 ± 0.040, h(11) = 1.179 ± 0.036 (see methods). Apparent dissociation constants (Kd) for the different combinations of channel and inhibitor (Supplementary Table 1) were determined by fitting the concentration dependences of inhibition (average %inhib values) with the Hill equation:  Figure 6 Open-state coupling is mediated by direct physical interaction between outer ends of S1 segments in the two subunits. (a) Schematics of mutant Hv1 dimers and linked dimers designed to study how intersubunit cysteine crosslinking affects GBTA binding cooperativity. (b–d) Concentration dependences of inhibition of the indicated constructs by 2GBI (b,d) and GBTA (c,e) in the presence or absence of 10 mM βME in the extracellular solution. Each point represents the average inhibition from 3 to 10 measurements ± S.D. Curve lines are Hill fits used to obtain Kd values (see Supplementary Table 1). Hill coefficients in inset histograms were determined from fits reported in Supplementary Figs 3 and 4. Asterisks in (c,e), indicate statistically significant differences between different conditions of GBTA inhibition (p < 0.0001, see methods). Corresponding differences for 2GBI inhibition [(b,d)] were not statistically significant (p > 0.05).

Assay [2] addresses T2, D112E I127C-C (Homo sapiens, UniProt Q96D96, D112E/I127C).
T2 construct: gene HVCN1; Hv1 homodimer, intersubunit cysteine crosslink (no βME)
T2 sequence (Q96D96 1-273 D112E/I127C): T1 sequence (Q96D96 1-273 D112E/I127C)
The conditions noted are these: crosslinked, no βME; apparent Kd, Hill fit of current inhibition; read-out: Kd (µM) (±SE).
Source text: as §1

Assay [3] has as its target T3, I127C+βME (Homo sapiens, UniProt Q96D96, I127C).
T3 construct: gene HVCN1; Hv1 homodimer, cysteines reduced by 10 mM βME
T3 sequence (Q96D96 1-273 I127C): T1 sequence (Q96D96 1-273 D112E/I127C) with E112D
Conditions: 10 mM βME; apparent Kd, Hill fit of current inhibition; read-out: Kd (µM) (±SE).
Source text: as §1

In assay [4] the target is T4, S181A Hv1NCCiVSP (monomer) (Homo sapiens, UniProt Q96D96, S181A).
T4 construct: gene HVCN1; monomeric chimera: CiVSP 1-113 + Hv1 97-227 + CiVSP 240-576, as T7, with S181A
T4 sequence (Q96D96 1-273 S181A): T1 sequence (Q96D96 1-273 D112E/I127C) with E112D, C127I, S181A
Conditions: apparent Kd, Hill fit of current inhibition; read-out: Kd (µM) (±SE).
Source text: as §1

The target of assay [5] is T5, human Hv1 (wild type, dimeric) D123A (Homo sapiens, UniProt Q96D96, D123A).
T5 construct: gene HVCN1; full-length human Hv1 homodimer, 273 residues; pGEMHE cRNA in Xenopus laevis oocytes, inside-out patches
T5 sequence (Q96D96 1-273 D123A): T1 sequence (Q96D96 1-273 D112E/I127C) with E112D, D123A, C127I
The conditions noted are these: apparent Kd, Hill fit of current inhibition; read-out: Kd (µM) (±SE).
Source text: as §1

In assay [6] the target is T6, human Hv1 (wild type, dimeric) D123R (Homo sapiens, UniProt Q96D96, D123R).
T6 construct: gene HVCN1; full-length human Hv1 homodimer, 273 residues; pGEMHE cRNA in Xenopus laevis oocytes, inside-out patches
T6 sequence (Q96D96 1-273 D123R): T1 sequence (Q96D96 1-273 D112E/I127C) with E112D, D123R, C127I
The conditions noted are these: apparent Kd, Hill fit of current inhibition; read-out: Kd (µM) (±SE).
Source text: as §1

The target in assay [7] is T7, human Hv1 (wild type, dimeric) E119A (Homo sapiens, UniProt Q96D96, E119A).
T7 construct: gene HVCN1; full-length human Hv1 homodimer, 273 residues; pGEMHE cRNA in Xenopus laevis oocytes, inside-out patches
T7 sequence (Q96D96 1-273 E119A): T1 sequence (Q96D96 1-273 D112E/I127C) with E112D, E119A, C127I
The conditions noted are these: apparent Kd, Hill fit of current inhibition; read-out: Kd (µM) (±SE).
Source text: as §1

Assay [8] addresses T8, human Hv1 (wild type, dimeric) K125A (Homo sapiens, UniProt Q96D96, K125A).
T8 construct: gene HVCN1; full-length human Hv1 homodimer, 273 residues; pGEMHE cRNA in Xenopus laevis oocytes, inside-out patches
T8 sequence (Q96D96 1-273 K125A): T1 sequence (Q96D96 1-273 D112E/I127C) with E112D, K125A, C127I
The conditions noted are these: apparent Kd, Hill fit of current inhibition; read-out: Kd (µM) (±SE).
Source text: as §1

Substitutions are numbered along the chain they refer to.

Turning to `N=C(N)Nc1nc2ccccc2[nH]1` [compound 1, 2-Guanidino-benzimidazole], the Kd in assay [1] was found to be 206 ± 13 µM; in assay [2] it was 168 ± 9 µM; in assay [3], 47.6 ± 3.5 µM; in assay [4] it was 125 ± 6 µM; in assay [5], 35.3 ± 3.5 µM; in assay [6] it was 71.5 ± 4.1 µM. Besides, the Kd in assay [7] was determined as 34.4 ± 2.9 µM; in assay [8], 29.4 ± 1.7 µM.

The values above are taken from article PMC4568520, “Interrogation of the intersubunit interface of the open Hv1 proton channel with a probe of allosteric coupling” (Scientific Reports, 2015).
